Test results published in patent US7211395B2, “Serum albumin binding moieties” (Dyax Corp., priority 2001, dated 2007).
Read-outs that look alike come from different tables or passages of the source.

By UniProt entry, the sequences of proteins in these tests, tags left out. Residues count along the entry.
UniProt P02768, 25-609: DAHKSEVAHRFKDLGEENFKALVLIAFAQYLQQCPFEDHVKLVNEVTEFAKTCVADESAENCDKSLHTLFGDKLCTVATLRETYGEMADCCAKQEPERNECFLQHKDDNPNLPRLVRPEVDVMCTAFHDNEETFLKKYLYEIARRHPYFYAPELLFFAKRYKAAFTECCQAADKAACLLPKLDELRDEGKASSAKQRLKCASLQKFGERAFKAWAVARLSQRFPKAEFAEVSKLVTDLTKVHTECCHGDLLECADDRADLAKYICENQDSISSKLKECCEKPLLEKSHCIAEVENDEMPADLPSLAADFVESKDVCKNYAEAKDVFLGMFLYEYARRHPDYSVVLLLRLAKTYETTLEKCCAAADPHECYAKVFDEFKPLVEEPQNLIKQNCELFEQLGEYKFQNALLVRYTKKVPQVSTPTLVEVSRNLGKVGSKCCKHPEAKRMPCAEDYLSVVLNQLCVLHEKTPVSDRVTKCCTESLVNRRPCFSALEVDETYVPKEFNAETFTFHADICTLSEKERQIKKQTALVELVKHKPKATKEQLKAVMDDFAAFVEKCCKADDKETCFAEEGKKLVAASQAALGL
UniProt Q28522, 17-600: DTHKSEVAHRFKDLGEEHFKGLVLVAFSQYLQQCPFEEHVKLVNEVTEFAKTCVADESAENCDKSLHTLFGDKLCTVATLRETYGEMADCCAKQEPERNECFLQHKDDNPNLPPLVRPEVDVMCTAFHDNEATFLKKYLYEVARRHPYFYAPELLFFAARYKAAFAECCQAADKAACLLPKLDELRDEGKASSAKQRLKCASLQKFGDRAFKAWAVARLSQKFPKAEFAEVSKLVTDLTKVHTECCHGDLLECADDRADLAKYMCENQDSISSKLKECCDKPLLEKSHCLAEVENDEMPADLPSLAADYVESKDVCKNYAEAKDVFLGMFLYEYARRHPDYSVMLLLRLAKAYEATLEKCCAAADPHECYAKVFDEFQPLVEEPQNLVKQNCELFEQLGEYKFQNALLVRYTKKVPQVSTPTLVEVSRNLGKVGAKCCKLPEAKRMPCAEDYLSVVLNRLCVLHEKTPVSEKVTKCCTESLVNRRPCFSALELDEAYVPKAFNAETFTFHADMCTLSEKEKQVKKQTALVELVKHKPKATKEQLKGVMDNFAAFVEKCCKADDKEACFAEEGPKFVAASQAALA
UniProt P02769, 25-607: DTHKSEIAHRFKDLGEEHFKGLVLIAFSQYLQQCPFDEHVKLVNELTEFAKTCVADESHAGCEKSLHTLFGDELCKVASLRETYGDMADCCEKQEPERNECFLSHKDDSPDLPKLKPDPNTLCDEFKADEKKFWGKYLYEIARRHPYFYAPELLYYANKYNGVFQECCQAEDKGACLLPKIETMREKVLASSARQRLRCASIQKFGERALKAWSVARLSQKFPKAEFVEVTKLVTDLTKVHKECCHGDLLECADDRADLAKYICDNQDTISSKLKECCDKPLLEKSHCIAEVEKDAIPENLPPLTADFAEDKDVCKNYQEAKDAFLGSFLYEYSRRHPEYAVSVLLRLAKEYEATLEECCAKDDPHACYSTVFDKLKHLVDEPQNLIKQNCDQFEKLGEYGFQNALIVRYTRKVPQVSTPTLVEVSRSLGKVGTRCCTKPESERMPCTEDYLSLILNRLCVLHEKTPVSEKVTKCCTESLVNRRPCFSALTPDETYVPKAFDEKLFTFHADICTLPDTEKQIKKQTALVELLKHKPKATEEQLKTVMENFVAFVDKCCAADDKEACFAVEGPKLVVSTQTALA
UniProt A0A452F7K4, 1-607: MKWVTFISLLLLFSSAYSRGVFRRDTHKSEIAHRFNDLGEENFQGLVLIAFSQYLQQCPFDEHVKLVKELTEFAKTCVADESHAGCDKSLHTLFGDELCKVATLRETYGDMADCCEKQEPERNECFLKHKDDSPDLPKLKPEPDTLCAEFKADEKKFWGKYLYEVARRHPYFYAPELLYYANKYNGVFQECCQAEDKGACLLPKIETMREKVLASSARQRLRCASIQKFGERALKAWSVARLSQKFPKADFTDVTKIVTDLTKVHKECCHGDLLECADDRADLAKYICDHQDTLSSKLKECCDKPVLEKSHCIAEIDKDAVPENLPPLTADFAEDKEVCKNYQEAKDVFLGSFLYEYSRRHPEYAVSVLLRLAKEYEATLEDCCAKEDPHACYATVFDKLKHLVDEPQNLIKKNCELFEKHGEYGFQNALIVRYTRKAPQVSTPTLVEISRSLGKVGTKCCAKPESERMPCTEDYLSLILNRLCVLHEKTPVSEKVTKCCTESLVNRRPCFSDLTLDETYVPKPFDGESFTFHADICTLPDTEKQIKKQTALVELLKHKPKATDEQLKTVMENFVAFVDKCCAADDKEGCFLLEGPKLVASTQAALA
UniProt P08835, 25-607: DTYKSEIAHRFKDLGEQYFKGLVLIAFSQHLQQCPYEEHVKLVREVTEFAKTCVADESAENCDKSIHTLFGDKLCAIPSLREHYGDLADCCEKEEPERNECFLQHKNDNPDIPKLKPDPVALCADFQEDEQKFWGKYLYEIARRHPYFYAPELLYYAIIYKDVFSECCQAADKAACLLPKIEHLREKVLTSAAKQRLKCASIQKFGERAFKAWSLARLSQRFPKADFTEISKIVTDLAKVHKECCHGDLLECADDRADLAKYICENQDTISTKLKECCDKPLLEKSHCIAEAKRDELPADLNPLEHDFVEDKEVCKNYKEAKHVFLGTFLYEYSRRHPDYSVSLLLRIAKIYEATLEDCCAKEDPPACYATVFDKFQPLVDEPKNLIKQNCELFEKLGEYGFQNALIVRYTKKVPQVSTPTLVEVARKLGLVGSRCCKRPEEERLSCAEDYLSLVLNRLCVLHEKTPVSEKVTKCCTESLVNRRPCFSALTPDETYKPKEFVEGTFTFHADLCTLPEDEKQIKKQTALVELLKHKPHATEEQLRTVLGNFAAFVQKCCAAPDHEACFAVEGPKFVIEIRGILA
UniProt P49065, 25-608: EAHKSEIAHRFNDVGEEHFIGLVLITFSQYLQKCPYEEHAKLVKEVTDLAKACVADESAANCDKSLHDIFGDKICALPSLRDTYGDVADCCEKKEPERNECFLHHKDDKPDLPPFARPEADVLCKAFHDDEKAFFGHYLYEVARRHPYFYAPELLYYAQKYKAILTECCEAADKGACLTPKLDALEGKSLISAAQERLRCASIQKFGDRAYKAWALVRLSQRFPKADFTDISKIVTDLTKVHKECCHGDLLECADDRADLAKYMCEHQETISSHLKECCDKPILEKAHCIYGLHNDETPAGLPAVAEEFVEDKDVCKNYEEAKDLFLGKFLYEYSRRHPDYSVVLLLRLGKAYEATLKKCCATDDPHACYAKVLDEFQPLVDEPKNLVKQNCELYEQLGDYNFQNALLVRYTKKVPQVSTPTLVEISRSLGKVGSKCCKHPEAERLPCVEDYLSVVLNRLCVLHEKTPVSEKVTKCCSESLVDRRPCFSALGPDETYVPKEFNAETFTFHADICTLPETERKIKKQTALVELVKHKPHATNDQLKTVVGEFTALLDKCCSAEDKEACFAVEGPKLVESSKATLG
UniProt P02770, 25-608: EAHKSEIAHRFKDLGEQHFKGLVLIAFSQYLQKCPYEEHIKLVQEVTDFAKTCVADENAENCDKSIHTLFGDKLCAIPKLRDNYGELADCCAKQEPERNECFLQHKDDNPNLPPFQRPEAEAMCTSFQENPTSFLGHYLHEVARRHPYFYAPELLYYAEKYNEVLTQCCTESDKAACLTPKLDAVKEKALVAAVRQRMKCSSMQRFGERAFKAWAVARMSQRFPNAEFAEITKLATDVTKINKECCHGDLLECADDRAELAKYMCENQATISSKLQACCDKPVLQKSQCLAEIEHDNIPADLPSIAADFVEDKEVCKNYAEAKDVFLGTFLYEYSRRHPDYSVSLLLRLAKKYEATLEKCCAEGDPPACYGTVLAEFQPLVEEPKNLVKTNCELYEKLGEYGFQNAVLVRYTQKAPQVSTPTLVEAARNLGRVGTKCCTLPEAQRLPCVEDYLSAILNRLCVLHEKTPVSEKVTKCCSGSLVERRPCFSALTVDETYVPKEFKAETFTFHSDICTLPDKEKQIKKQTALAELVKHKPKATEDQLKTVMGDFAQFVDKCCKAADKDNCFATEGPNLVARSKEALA

Assays:
[1] = target: T1, human serum albumin (HSA) (Homo sapiens, UniProt P02768); experiment: Fluorescence anisotropy, direct binding of fluorescein-labeled peptide to HSA
T1 construct: purchased ICN
Experimental: (§1) Affinity determinations were made by first labeling polypeptides on the C-terminal end with NHS-fluorescein. Fluorescence anisotropy measurements were performed in 384-well microplates in a volume of 10 μl in binding buffer using a Tecan Polarion fluorescence polarization plate reader. The concentration of fluorescein labeled peptide was held constant (20 nM), and the concentration of HSA was varied. For pH 6.2, 7.1, and 7.4 binding conditions, a 3 mM phosphate, 0.01% TWEEN-20® buffer was used. For pH 9.1 binding conditions, a 3 mM sodium bicarbonate buffer, 0.01% TWEEN-20® nonionic detergent buffer was used. Once NaCi was added to any of these buffers, their pH was adjusted again to achieve the original pH. The binding mixtures were equilibrated for 10 minutes in the microplate at […] prior to performing the measurement. The observed change in anisotropy was fit to the equation below via nonlinear regression to obtain the apparent KD. This equation assumes that the peptide and HSA form a reversible complex with 1:1 stoichiometry.

Rhesus albumin = target: T2, Rhesus albumin (Macaca mulatta, UniProt Q28522); experiment: Fluorescence anisotropy, panel of mammalian albumins: Rhesus; format: binding
T2 construct: All other mammalian albumins were purchased as Fraction V purified material from Sigma Chemical Company; purchased Sigma Chemical Company
Experimental: as §1
(§2) [formula] where robs is the observed anisotropy, rfree is the anisotropy of the free peptide, rbound is the anisotropy of the bound peptide, KD is the apparent dissociation constant, HSA is the total HSA concentration, and P is the total fluorescein-labeled peptide concentration.

[2] = target: T3, bovine serum albumin (BSA) (Bos taurus, UniProt P02769); experiment: Fluorescence anisotropy, panel of mammalian albumins: Bovine; format: binding
T3 construct: All other mammalian albumins were purchased as Fraction V purified material from Sigma Chemical Company; purchased Sigma Chemical Company
Experimental: as §1, §2

goat serum albumin (GSA) = goat serum albumin (GSA) (Capra hircus, UniProt A0A452F7K4); experiment: Fluorescence anisotropy, panel of mammalian albumins: Goat; format: binding
Experimental: as §1, §2

Pig albumin = target: T4, Pig albumin (Sus scrofa, UniProt P08835); experiment: Fluorescence anisotropy, panel of mammalian albumins: Pig; format: binding
T4 construct: All other mammalian albumins were purchased as Fraction V purified material from Sigma Chemical Company; purchased Sigma Chemical Company
Experimental: as §1, §2

Rabbit albumin = target: T5, Rabbit albumin (Oryctolagus cuniculus, UniProt P49065); experiment: Fluorescence anisotropy, panel of mammalian albumins: Rabbit; format: binding
T5 construct: All other mammalian albumins were purchased as Fraction V purified material from Sigma Chemical Company; purchased Sigma Chemical Company
Experimental: as §1, §2

Rat albumin = target: T6, Rat albumin (Rattus norvegicus, UniProt P02770); experiment: Fluorescence anisotropy, panel of mammalian albumins: Rat; format: binding
T6 construct: All other mammalian albumins were purchased as Fraction V purified material from Sigma Chemical Company; purchased Sigma Chemical Company
Experimental: as §1, §2

chicken ovalbumin = target: T7, chicken ovalbumin (Gallus gallus, UniProt P01012); experiment: Fluorescence anisotropy, negative control chicken ovalbumin; format: binding; details: Chicken (egg) ovalbumin
T7 sequence (P01012 1-386): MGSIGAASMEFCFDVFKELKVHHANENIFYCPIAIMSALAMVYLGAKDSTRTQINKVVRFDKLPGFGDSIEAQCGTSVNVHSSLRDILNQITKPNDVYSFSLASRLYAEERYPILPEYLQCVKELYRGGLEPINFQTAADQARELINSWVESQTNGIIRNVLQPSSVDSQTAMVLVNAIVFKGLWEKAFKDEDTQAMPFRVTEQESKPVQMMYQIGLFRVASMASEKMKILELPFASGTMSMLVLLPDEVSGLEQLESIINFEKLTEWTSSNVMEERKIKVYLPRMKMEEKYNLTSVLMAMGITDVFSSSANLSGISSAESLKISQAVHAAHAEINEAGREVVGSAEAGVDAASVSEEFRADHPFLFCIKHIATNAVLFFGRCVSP

[3] = pH 6.2, NaCl ([…]) +, caprylate (0.1%) −
[4] = pH 7.4, NaCl ([…]) +, caprylate (0.1%) −
[5] = read-out: KD for Truncated Peptides of DX-236, buffer not stated in Table 2

## Ac-AEGTGDDWQCVKDWANRRRGCMA-DDPE-X-K—NH2 [DX-319]
[1]; [3]
  Dissociation Constants of HSA Binding Peptides: >200 µM
[1]; [4]
  Dissociation Constants of HSA Binding Peptides: >200 µM

## Ac-AEGTGSVAWCTIFLCLDVAPEGGGK—NH2 [DX-232]
[1]; [3]
  Dissociation Constants of HSA Binding Peptides: 0.5 µM
[1]; read-out: Dissociation Constants of HSA Binding Peptides, pH 7.4, NaCl ([…]) +, caprylate (0.1%) +
  Kd: < 10 µM

## Ac-AEGTGAFWFCDRIAWYPQHLCEFLDPEGGGK-NH2 [SEQ ID NO: 129]
[1]; alanine mutants of DX-236, 3 mM phosphate buffer, pH 6.2, no salt
  KD pH 6.2: 5.1 μM

## Ac-AEGTGSWKVCDHFFCLSPAPE-X-K—NH2 [DX-297]
[1]; pH 6.2, NaCl ([…]) −, caprylate (0.1%) −
  Dissociation Constants of HSA Binding Peptides: 18 µM
[1]; pH 7.4, NaCl ([…]) +, caprylate (0.1%) +
  Dissociation Constants of HSA Binding Peptides: >200 µM

## Ac-AEGTGDFWFCDRIAWYPQHLCEFLDPEGGGK—NH2 [DX-236]
[1]; alanine mutants of DX-236, PBS
  KD PBS: 35.0 µM
[1]; [4]
  Dissociation Constants of HSA Binding Peptides: 11 µM
[1]; read-out: Dissociation Constants of HSA Binding Peptides, pH 6.2, NaCl ([…]) +, caprylate (0.1%) −
  Kd: ~8.7 µM
[1]; [5]
  Kd: 1.9 µM
Rhesus albumin; PBS, pH 7.4, […] NaCl
  Kd: 23 µM
Rhesus albumin; phosphate, pH 6.2, 0 M NaCl
  Kd: 1.1 µM
[2]; PBS, pH 7.4, […] NaCl
  Kd: 13.3 µM
[2]; phosphate, pH 6.2, 0 M NaCl
  Kd: 1.1 µM
Goat serum albumin (GSA); PBS, pH 7.4, […] NaCl
  Kd: 23 µM
Goat serum albumin (GSA); phosphate, pH 6.2, 0 M NaCl
  Kd: 1.6 µM
Pig albumin; PBS, pH 7.4, […] NaCl
  Kd: 12 µM
Pig albumin; phosphate, pH 6.2, 0 M NaCl
  Kd: 0.5 µM
Rabbit albumin; PBS, pH 7.4, […] NaCl
  Kd: 18 µM
Rabbit albumin; phosphate, pH 6.2, 0 M NaCl
  Kd: 0.5 µM
Rat albumin; PBS, pH 7.4, […] NaCl
  Kd: 25 µM
Rat albumin; phosphate, pH 6.2, 0 M NaCl
  Kd: 1.6 µM
Chicken ovalbumin; PBS, pH 7.4, […] NaCl
  Kd: > 200 µM
Chicken ovalbumin; phosphate, pH 6.2, 0 M NaCl
  Kd: > 200 µM

## Ac-CDRIAWYPQHLCGGGK—NH2 [SEQ ID NO: 43]
[1]; [5]
  Kd: 16 µM

## Ac-AEGTGDPWFCDRIAWYPQHLCEFLGGGK—NH2 [SEQ ID NO: 41]
[1]; [5]
  Kd: 9.9 µM
